From US12428427B2, “Methods and compositions for targeting PD-L1” (Aligos Therapeutics, Inc., priority 2021, dated 2025)

Amino acid sequences for entries named in this document (tags omitted). Residues count along the entry.
UniProt Q9NZQ7, 19-238 limits assumed: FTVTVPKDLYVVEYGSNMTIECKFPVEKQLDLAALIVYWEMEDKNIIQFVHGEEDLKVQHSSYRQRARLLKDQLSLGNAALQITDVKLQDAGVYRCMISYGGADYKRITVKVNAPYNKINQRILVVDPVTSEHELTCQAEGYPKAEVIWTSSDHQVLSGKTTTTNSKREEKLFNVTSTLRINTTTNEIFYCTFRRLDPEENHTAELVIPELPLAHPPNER
UniProt Q9NZQ7, 19-290 limits assumed: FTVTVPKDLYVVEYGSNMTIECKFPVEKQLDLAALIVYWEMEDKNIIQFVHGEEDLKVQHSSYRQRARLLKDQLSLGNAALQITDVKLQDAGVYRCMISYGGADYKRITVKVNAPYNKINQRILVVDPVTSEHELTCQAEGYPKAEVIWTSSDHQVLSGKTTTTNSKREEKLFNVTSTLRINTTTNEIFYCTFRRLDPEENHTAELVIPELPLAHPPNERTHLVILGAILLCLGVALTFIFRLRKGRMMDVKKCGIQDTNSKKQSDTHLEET

Tests used:
[1] = target: PDL1/PD1 (Homo sapiens, UniProt Q9NZQ7); experiment: PDL1/PD1 Binding Assay; settings: read-out: PD-1/PD-L1 PPI IC50; PDL1-6×His 0.3 nM, PD1-Fc-Avi-Biotin 2.5 nM, Acceptor/Donor beads
Procedure: Compounds to be tested were serially diluted in DMSO, and further diluted in assay buffer (25 mM Hepes pH 7.4, 150 mM NaCl, 0.005% Tween 20, BSA 0.01%). Diluted compounds were added to the wells with final concentration of DMSO at 1%. PDL1-6×His protein was added to the wells, mixed well with compound. The plates were incubated for 30 min at room temperature. PD1-Fc-Avi-Biotin protein was added to the wells. Final concentration of PDL1 and PD1 protein is 0.3 nM and 2.5 nM, respectively. After a binding time of 30 min at room temperature, Anti-6×His Acceptor beads (final concentration 20 ug/ml) were added to the wells, and the incubation continued for 1 h. Streptavidin Donor beads (final concentration 20 ug/mL) were added at reduced light. The plates were sealed with foil and incubated in the dark for additional 1 h or overnight before reading on an Envision reader. The IC50 values were determined by fitting the curves using a four-parameter equation in Graphpad Prism 8.

[2] = target: PD-1/PD-L1 interaction (Homo sapiens, UniProt Q9NZQ7); experiment: PD-1/PD-L1 NFAT Reporter Assay; settings: read-out: Jurkat NFAT EC50; co-culture of PD-L1 expressing CHO cells and PD-1 overexpressing Jurkat cells, 6 hrs, NFAT luciferase
Procedure: Blocking the PD-1/PD-L1 interaction will release the inhibitory signal and results in TCR signaling and NFAT-mediated luciferase activity.
CHO cells expressing surface-bound anti-CD3 antibodies and PD-L1 were first seeded overnight and treated with the compounds. Jurkat cells overexpressing PD-1 and a luciferase construct under NFAT promoter were then immediately seeded on the monolayer of CHO cells. The co-culture was then incubated for 6 hrs at 37° C. Luciferase activity was assessed by adding the ONE-Glo reagent and measuring luminescence with a plate reader. EC50 values were determined from the fit of the dose-response curves.

CCOC(=O)N(Cc1ncc(-c2cccc(-c3cccc(NC(=O)c4ccnn(C)c4=O)c3Cl)c2Cl)nc1OC)C[C@@H]1CCC(=O)N1
IC50 [1]: 10 to 100 nM
EC50 [2]: > 5000 nM
